Measurements taken from ChEMBL document CHEMBL5506053, “Explorations of Agonist Selectivity for the α9* nAChR with Novel Substituted Carbamoyl/Amido/Heteroaryl Dialkylpiperazinium Salts and Their Therapeutic Implications in Pain and Inflammation” (J Med Chem, 2024).

Chains of the proteins cited; added tags and fusions are not shown. Lines headed by an entry give the natural chain unless they say otherwise; changes in a name come on top.
UniProt P36544, whole entry: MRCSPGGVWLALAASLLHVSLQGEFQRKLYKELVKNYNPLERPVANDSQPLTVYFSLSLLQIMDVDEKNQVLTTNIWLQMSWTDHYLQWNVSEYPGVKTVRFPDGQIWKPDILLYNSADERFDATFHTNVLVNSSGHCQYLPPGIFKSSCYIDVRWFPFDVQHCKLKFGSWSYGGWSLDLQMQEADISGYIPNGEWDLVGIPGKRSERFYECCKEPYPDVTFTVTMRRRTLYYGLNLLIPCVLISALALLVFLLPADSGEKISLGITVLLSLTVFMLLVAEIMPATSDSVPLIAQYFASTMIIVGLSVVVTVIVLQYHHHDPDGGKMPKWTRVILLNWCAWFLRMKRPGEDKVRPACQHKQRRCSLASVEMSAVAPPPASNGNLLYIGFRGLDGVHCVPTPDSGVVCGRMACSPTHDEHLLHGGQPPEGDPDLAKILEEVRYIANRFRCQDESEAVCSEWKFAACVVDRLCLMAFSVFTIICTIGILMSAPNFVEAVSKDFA
UniProt Q9UGM1: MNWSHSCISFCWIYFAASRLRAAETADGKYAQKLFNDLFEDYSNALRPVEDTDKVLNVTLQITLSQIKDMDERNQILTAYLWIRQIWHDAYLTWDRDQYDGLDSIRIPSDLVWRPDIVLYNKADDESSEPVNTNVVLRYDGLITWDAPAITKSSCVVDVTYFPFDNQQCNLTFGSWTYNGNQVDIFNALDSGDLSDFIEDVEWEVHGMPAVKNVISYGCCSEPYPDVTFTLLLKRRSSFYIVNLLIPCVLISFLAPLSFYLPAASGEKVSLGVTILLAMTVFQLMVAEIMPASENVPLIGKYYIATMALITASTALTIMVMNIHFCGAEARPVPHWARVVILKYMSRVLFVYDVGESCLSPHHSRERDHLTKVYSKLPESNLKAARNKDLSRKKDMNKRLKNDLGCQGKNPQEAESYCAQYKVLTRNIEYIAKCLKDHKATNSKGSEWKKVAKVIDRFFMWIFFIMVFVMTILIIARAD

Columns and labels:
[1] = biological target: Neuronal acetylcholine receptor subunit alpha-7 (Homo sapiens, UniProt P36544); test: Agonist activity at alpha7 nAChR (unknown origin) assessed as fold change in maximum response (Imax) relative to acetylcholine; details: filed as agonist
[2] = biological target: Neuronal acetylcholine receptor subunit alpha-9 (Homo sapiens, UniProt Q9UGM1); test: Agonist activity at alpha9 nAChR (unknown origin) assessed as fold change in maximum response (Imax) relative to acetylcholine; details: filed as agonist

`CC[N+]1(CC)CCN(c2ccc(C(=O)Nc3cccc(C)n3)cc2)CC1.[I-]` gave a fold change (FC) [1] of 0.42 and a fold change (FC) [2] of 1.06.
